Results published in patent US8937189B2 (dated 2015).

Test system: rat NET
Test: Inhibition of [3H]nisoxetine binding to NET

| Compound | NET binding/DAT binding |
| --- | --- |
| Nc1ccc(CN[C@H]2CC[C@@H](C(c3ccccc3)c3ccccc3)OC2)cc1 (relative stereo) [Compound 16o, Cis-(6-benzhydryl-tetrahydropyran-3-yl)-(4-amino-benzyl)-amine] | 0.81 |
| Oc1ccc(CN[C@H]2CC[C@@H](C(c3ccccc3)c3ccccc3)OC2)cc1 (relative stereo) [Compound 16h, Cis-(6-benzhydryl-tetrahydropyran-3-yl)-(4-hydroxy-benzyl)-amine] | 0.29 |
